The record followed here is patent US20040176573A1.

In this test the target is HLA-B35 (human).

EBNA3A458-466 (peptide) had a C50 of 0.8 µM.
